Columns and labels:
CC(C)=O = experiment: purified protein; conditions: 0.2 mM NADPH, 50 mM Tris-HCl pH 7.5, 1 mM DTT, 25°C
CCC(C)=O = experiment: purified protein; conditions: 0.2 mM NADPH, 50 mM Tris-HCl pH 7.5, 1 mM DTT, 25°C

Substance	Km (CC(C)=O) [µM]	kcat (CC(C)=O) [s⁻¹]	Km (CCC(C)=O) [µM]	kcat (CCC(C)=O) [s⁻¹]	kcat/Km (CCC(C)=O) [M⁻¹ s⁻¹]	kcat/Km (CC(C)=O) [M⁻¹ s⁻¹]
CaADH (Clostridium autoethanogenum DSM 10061; G198D/P201E/S199V)	600 ± 100	39 ± 1	–	–	–	–
CaADH (Clostridium autoethanogenum DSM 10061; S199A)	900 ± 100	60	800 ± 100	46	61000	67000
CaADH (Clostridium autoethanogenum DSM 10061; S199R)	1100 ± 200	89	–	–	–	81000

— article PMC4498498
